As usually defined, the inhibition is the drop in the measured response relative to a control, in per cent.

Sequences of proteins named here, by UniProt entry; tags and fusion partners are left off.
UniProt P9WH09, whole entry, looked up: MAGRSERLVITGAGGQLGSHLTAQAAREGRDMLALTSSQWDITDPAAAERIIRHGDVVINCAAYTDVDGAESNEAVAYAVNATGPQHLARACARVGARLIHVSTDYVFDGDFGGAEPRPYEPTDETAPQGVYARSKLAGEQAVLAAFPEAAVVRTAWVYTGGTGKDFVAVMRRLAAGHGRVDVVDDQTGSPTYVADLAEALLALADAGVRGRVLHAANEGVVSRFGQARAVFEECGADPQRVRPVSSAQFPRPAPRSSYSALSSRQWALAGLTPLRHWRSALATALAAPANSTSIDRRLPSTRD
UniProt P9WH11, whole entry, looked up: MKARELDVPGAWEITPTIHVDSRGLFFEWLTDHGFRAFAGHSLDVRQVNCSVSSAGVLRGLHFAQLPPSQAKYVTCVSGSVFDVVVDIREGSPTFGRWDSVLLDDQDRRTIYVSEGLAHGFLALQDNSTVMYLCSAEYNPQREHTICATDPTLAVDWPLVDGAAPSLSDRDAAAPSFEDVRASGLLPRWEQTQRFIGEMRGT

The values that follow come from PubChem BioAssay AID1533 (PCMD, 2009).

Only a part is listed here, and it is no random draw. Some of these compounds have results that are not shown, active ones among them. Active and inactive are the calls of the source. Rule as the data show it: active = inhibition mostly above about 34% (no sharp cut-off); inconclusive = no clear call, values can overlap the other calls; inactive = mostly below about 22%.

This test concerns the target dTDP-4-dehydrorhamnose reductase (Mycobacterium tuberculosis (strain ATCC 25618 / H37Rv)) + dTDP-4-dehydrorhamnose 3,5-epimerase (Mycobacterium tuberculosis (strain ATCC 25618 / H37Rv)) (UniProt P9WH09+P9WH11). Kind of test: M. tuberculosis RmlC/RmlD coupled enzyme inhibitors, primary screen, biochemical, compound mixtures, 384-well, from 1536-well plates (AID 1533). The following applies: RmlC+RmlD coupled enzyme assay, percent inhibition; primary screen in compound mixtures; at 3.6 µM; stronger effect = higher value.
As to `CN(C)C1CCCC1OC(=O)C(O)(c1ccccc1)c1ccccc1` (centres undefined), the inhibition was inactive: 6.18%.

For the compound `C=CCN1CCN(CCOC(=O)C(O)(c2ccccc2)c2ccccc2)CC1`, the inhibition was inactive: -0.86%.

Consider `CCN1CCCC(OC(=O)C2(O)c3ccccc3C=Cc3ccccc32)C1` (centres undefined), for which the inhibition was inactive: 3.09%.

Regarding `CCN(CC)CC(C)C(C)OC(=O)C(O)(c1ccccc1)c1ccccc1` (centres undefined), the inhibition is inactive: 2.44%.

Regarding `CC(C)N1C(=O)CC2(CCN(CCOC(=O)C(O)(c3ccccc3)c3ccccc3)CC2)C1=O`, the inhibition is inactive: -7.49%.

`O=C(OC1CN2CCC1CC2)C(CO)(c1ccccc1)c1ccccc1` (centres undefined): the inhibition is inactive: 3.11%.

On to `COc1ccc(Br)c(C(=O)NCC2(N3CCCCC3)CCCCC2)c1`, for which the inhibition was inactive: 1.33%.

Regarding `CN(C)c1cccc(C(=O)NCC2(N(C)C)CCCCC2)c1`, the inhibition is inactive: 2.55%.

Consider `COc1cccc(C(=O)NCC2(N3CCCCC3)CCCCC2)c1`, for which the inhibition is inactive: 1.21%.
